According to EP0939649B1, “ADDITIVE, IN PARTICULAR IN THE FORM OF AN EMULSION CONTAINING A TRIVALENT METAL CATION AND VACCINE COMPOSITION CONTAINING SAME” (priority 1996, dated 1998):

Assay: Local reactions (lesions and granulomas) at the injection site after subcutaneous injection in mice
Format: in vivo, souris
Details: 8 days after s.c. injection, 1000 µl, 10 µg BSA
Protocol: On a injecté à différents lots comprenant chacun 5 souris, une composition thérapeutique d'un volume de 1000 µl, comprenant 10 µg d'antigène (BSA), par voie sous-cutanée. On a évalué les réactions locales (lésions et granulomes) 8 jours après injection.

Measured: réactions locales (lésions et granulomes)

salicylate d'Aluminium
0: souris 1 | souris 3 | souris 4 | souris 5
